These results are taken from patent publication US11020462B2, “Methods for treatment of diseases” (SERPIN PHARMA, LLC, priority 2015, dated 2021).

Amino acid sequences for entries named in this document (tags omitted). Chains listed by the source or under a name are the forms on record and can include a tag or linker. Residues count along the entry.
UniProt Q91ZX7, 20-4545: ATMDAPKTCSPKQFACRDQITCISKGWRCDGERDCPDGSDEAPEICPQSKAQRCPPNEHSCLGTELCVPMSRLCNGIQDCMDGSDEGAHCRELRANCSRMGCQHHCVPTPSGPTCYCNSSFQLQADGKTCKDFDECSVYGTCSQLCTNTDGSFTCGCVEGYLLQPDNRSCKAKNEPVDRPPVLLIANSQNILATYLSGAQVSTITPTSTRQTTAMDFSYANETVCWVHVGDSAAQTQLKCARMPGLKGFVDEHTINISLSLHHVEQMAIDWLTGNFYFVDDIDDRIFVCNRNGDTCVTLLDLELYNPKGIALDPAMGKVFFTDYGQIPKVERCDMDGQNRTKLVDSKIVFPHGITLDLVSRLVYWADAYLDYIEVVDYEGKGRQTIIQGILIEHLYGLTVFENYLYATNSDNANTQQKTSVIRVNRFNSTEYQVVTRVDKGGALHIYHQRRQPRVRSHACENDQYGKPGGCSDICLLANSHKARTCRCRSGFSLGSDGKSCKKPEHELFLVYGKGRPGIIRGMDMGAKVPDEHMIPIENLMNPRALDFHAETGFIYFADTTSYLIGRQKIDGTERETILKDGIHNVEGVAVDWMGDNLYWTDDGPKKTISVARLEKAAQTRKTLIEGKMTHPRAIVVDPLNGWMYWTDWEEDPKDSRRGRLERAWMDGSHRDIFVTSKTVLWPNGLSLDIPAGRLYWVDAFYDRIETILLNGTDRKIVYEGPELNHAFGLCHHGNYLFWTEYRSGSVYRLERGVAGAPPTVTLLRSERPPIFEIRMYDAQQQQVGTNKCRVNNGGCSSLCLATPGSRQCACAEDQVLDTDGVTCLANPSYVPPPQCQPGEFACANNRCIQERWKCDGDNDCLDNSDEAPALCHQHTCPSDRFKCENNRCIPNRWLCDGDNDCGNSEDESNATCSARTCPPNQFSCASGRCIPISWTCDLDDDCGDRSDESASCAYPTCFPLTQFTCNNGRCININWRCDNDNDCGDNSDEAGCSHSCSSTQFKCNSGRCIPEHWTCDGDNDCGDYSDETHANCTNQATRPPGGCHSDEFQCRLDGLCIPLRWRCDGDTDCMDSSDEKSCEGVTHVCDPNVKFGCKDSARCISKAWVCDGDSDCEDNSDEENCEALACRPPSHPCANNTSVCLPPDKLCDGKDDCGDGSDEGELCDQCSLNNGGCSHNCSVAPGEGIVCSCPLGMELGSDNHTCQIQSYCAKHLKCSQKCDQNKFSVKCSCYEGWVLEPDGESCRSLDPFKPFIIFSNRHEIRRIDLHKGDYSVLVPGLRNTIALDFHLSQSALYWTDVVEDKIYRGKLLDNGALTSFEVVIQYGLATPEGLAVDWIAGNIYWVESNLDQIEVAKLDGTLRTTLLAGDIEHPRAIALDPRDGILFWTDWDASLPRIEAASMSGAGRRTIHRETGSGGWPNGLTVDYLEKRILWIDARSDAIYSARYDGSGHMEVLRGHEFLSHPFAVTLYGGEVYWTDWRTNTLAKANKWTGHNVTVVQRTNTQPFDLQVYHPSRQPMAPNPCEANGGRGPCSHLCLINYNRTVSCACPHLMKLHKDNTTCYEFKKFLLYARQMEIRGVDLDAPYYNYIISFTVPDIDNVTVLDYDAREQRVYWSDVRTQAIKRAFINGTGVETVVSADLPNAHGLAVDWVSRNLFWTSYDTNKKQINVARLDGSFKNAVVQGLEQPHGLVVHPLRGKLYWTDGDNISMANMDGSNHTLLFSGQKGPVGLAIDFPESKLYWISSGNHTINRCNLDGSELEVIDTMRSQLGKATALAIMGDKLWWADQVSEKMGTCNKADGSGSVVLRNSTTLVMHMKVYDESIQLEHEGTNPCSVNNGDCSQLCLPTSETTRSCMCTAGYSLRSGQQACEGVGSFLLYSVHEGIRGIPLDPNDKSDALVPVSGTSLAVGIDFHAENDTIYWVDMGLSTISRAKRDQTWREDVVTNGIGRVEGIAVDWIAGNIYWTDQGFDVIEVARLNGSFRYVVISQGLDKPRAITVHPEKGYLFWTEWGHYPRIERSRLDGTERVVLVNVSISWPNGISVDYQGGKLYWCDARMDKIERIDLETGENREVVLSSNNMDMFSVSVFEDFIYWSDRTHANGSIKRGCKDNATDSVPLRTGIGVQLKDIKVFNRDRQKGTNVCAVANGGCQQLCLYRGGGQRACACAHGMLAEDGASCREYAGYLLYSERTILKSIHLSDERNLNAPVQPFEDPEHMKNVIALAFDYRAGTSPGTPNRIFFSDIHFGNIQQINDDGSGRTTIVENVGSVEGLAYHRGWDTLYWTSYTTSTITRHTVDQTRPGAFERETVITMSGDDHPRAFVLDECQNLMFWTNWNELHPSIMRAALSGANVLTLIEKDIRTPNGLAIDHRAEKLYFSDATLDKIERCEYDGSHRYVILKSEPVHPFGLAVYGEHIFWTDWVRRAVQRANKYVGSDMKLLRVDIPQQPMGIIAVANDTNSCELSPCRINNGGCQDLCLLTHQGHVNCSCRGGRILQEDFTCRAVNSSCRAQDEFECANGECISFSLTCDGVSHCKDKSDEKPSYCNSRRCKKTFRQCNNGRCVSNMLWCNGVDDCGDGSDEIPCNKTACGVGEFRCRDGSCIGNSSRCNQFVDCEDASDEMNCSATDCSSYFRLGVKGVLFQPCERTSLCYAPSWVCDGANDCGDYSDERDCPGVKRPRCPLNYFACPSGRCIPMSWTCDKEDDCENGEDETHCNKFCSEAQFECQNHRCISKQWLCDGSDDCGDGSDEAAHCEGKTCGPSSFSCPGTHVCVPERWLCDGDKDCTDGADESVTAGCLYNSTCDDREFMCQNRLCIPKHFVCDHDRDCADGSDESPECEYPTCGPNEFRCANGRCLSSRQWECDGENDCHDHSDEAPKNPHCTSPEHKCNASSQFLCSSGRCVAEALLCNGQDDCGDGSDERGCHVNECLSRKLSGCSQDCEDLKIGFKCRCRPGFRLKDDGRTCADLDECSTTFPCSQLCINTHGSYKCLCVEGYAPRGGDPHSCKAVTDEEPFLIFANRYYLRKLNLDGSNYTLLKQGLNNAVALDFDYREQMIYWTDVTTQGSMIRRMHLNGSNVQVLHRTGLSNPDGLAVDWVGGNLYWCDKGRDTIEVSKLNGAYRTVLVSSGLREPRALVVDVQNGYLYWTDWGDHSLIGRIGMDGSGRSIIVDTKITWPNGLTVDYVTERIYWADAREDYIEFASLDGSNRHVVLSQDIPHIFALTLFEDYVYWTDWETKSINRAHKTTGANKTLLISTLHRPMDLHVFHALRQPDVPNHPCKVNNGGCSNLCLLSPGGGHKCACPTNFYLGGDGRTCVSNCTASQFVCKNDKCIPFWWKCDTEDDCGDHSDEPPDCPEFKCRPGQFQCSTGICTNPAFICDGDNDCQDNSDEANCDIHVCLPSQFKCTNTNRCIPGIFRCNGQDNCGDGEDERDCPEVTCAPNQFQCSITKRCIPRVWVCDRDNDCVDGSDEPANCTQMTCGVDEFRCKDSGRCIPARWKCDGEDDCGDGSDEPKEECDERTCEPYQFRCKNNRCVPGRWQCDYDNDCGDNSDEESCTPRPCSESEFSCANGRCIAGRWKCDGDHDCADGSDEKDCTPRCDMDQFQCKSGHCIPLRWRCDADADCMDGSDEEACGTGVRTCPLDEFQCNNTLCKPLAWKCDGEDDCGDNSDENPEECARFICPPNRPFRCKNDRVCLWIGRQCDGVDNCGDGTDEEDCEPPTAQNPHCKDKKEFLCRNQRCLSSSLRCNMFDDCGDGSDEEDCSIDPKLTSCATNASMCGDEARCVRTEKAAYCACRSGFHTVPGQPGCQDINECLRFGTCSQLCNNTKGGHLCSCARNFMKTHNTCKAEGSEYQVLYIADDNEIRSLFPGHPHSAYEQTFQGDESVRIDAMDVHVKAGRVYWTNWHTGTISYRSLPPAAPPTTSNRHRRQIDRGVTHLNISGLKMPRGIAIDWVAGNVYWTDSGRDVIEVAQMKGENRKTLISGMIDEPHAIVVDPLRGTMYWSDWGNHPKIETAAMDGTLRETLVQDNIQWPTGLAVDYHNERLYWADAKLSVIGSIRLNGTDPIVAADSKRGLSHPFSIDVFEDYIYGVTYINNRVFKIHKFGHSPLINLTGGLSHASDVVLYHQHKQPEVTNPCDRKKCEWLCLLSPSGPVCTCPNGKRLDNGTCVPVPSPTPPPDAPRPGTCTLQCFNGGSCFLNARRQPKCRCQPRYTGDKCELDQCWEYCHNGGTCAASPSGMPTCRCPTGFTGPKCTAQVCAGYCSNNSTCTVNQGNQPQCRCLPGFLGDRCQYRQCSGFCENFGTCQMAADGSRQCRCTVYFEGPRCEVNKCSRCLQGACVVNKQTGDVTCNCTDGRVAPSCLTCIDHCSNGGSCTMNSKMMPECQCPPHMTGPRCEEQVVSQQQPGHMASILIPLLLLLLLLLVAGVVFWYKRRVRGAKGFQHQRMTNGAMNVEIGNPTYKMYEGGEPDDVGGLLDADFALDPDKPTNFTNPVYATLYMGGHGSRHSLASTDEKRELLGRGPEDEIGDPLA
UniProt Q07954, with tags, fused parts or gaps limits assumed, species assumed: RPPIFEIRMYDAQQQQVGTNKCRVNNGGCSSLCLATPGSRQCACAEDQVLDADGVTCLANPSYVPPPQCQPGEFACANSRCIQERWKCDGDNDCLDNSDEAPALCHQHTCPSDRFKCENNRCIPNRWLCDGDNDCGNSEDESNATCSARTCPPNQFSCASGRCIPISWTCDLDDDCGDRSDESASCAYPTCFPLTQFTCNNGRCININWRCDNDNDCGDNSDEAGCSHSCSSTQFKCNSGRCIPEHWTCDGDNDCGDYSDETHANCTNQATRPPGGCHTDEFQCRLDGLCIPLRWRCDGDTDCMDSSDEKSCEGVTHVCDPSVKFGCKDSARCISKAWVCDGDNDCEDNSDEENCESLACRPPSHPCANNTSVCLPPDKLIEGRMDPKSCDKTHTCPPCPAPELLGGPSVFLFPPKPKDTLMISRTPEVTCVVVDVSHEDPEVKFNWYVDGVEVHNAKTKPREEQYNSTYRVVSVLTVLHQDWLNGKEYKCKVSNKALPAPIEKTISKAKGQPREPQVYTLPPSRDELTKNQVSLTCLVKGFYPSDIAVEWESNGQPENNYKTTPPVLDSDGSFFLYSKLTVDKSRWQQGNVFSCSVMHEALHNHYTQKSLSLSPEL

Entries after “also recorded” stand apart in the source; their conditions may differ.

One data set has as its target T1, LRP1 (Mus musculus, UniProt Q91ZX7).
T1 construct: from tissue; host or cells: living CD1 mice (heart, in vivo)
Briefly: experimental AMI in mice pretreated with LRP1 blocking antibody. The class given is in vivo. As to conditions: LRP1 antibody clone 5A6 3 mg/kg 16 hours before surgery; SP163M 100 μg or AAT 60 mg/kg i.p. after reperfusion, FIG. 14. On the procedure:
To examine the whether LRP1 mediates the cardioprotective effect of SP163M, groups of mice were treated with an LRP1 blocking antibody prior to experimental AMI. The resulting infarct size and LV systolic function were measured
Adult out-bred male CD1 mice (10 weeks of age) supplied by Harlan Sprague Dawley (Indianapolis, Ind.) were used in this study. A single operator (S.T.) skilled in coronary artery surgical ligation in mice performed all surgeries. Experimental AMI was induced by transient coronary artery ligation of the left anterior descending coronary artery for 30 minutes to induce ischemia of the anterior wall and the apex (visible as pallor) followed by reperfusion, and leading to an infarct involving approximately 15% of the left ventricle. […]
Infarct size (reported in FIG. 14A) was measured as previously described. […] The infarcted tissue (appearing white) and the viable tissue (bright red) were measured by computer morphometry using Image Pro Plus 6.0 software (Media Cybernetics, Silver Spring, Md.). […]
LV systolic function (reported in FIG. 14B) was determined as well. […] We measured the left ventricular (LV) end-diastolic and end-systolic areas at B-Mode and the LV end-diastolic diameter (LVEDD), LV end-systolic diameters (LVESD) at M-Mode. LV fractional shortening (FS) and LV ejection fraction (EF) were calculated. […]

The subject of data set [1] is LRP1 on Raw264.7 murine macrophages. Put plainly: LRP1 expression on Raw264.7 murine macrophages by flow cytometry. The class given is cell-based. As to conditions: 50, 100 or 200 ug/ml for 3 hrs, FIG. 10. As for the experimental part: Macrophages were plated 0.2×10^6 in a 24 well plate and grown to 70% confluence. Cells were treated with vehicle (red), SP16 at 50 (Purple), 100 (Green) or 200 ug/ml (Blue), scrambled control (Orange) or COG133 (ApoE peptide) (Pink) for 3 hrs before harvesting with cold PBS 5 mM EDTA. Samples were labeled with anti-LRP1 (abeam ab92544) and stained with Alexa FluorTM 488 rabbit secondary (invitrogen) and then analyzed by flow cytometry (Guava EasyCyteTM flow cytometer). The mean fluorescent intensity (MFI) normalized to the control is shown. (For each sample >10,000 events were collected).

Data set [2] concerns experimental acute myocardial infarction (AMI) in the mouse. Briefly: experimental acute myocardial infarction in the mouse: coronary artery ligation 30 minutes, then reperfusion. It is filed as in vivo. As for the experimental part:
In order to examine the effects of SP163M in AMI, the peptide was tested in the same mouse model previously used for AAT. Briefly, adult male ICR mice underwent coronary artery ligation inducing myocardial ischemia for 30 minutes followed by reperfusion. SP16 at 100 μg dose or matching volume of NaCl 0.9% solution was given at time of reperfusion.
Ten-weeks-old male ICR (CD1) mice underwent surgical coronary artery ligation for 30 minutes, followed by reperfusion for 24 hours, to simulate the scenario of acute myocardial infarction (AMI) treated with reperfusion therapies. A subgroup of mice underwent sham surgery in which the coronary artery was identified and isolated but not ligated.
SP163M—active peptide- or a control solution—vehicle—were administered at a dose of 100 μg/mouse i.p. at reperfusion
Infarct size was measured at pathology with triphenyltetrazolium chloride(TTC)/Evans blue staining, and by measuring plasma troponin I levels at 24 hours. Evans blue was retrogradely injected through the aorta after re-ligation of the coronary artery knot to identify the non-risk myocardium (blue). TTC was used to stain viable myocardium (red).
Echocardiography was used to assess left ventricular (LV) fractional shortening, as a measure of systolic function in vivo.
Ten-weeks-old male ICR (CD1) mice underwent surgical coronary artery ligation for 30 minutes, followed by reperfusion for 24 hours, to simulate the scenario of AMI treated with reperfusion therapies.
SP163M—active peptide- or SP34—control peptide—were administered at a dose of 100 μg/mouse i.p. at the moment of the reperfusion or with 30′ of delay, to simulate a clinical scenario in which a delay between reperfusion and pharmacologic therapy is likely to occur.
Infarct size was measured with TTC/Evans blue staining. Echocardiography was used to assess left ventricular (LV) fractional shortening, as a measure of systolic function in vivo. Each group included at least 6 mice.
Ten-weeks-old ICR mice underwent surgical coronary artery ligation for 30 minutes, followed by reperfusion for 24 hours. SP16 was administered at 2 different doses (10 or 100 ug) with 30′ of delay. The control peptide SP34 (100 μg) or the vehicle solution were used as controls.
Infarct size was measured with TTC/Evans blue staining. Transthoracic echocardiography was used to assess left ventricular (LV) fractional shortening. Each group included at least 6 mice.

The next data set addresses T2, recombinant LRP1 protein (Homo sapiens, UniProt Q07954).
T2 construct: purchased R&D Systems, Minneapolis, Minn
Put plainly: in vitro binding of biotin-peptide to recombinant LRP1 (streptavidin bead pull-down, western blot). On the procedure:
An in vitro assay was performed to examine SP163M binding to LRP1. To perform the assay, recombinant LRP1 protein (1 μg/ml) (R&D Systems, Minneapolis, Minn.) was incubated on ice in the presence of biotin-SP163M (1-5 μg/ml) at 4° C. for 1 hour. This mixture was then incubated with 1 mg/ml M280 Streptavidin Dynabeads (Invitrogen, Carlsbad, Calif.) for 1.5 hours at 4° C. Dynabeads were washed in PBS+0.1% Tween20 and boiled in SDS loading buffer for 5 minutes. The supernatants were separated on NuPAGE 4-12% Bis-Tris gels (Invitrogen) and transferred to nitrocellulose membranes. The membranes were probed with anti-LRP1 (LRP-1 Cluster II Affinity Purified Polyclonal Ab, R&D, Minneapolis, Minn.) and incubated overnight at 4° C. The membranes were then washed 3 times with TBS-T and incubated with secondary HRP-coupled anti-goat diluted 1:10,000 in 5% milk TBS-T. The western blots were visualized by chemiluminescence using SuperSignal West Femto Maximum Sensitivity Substrate kit (ThermoScientific) and a Bio Rad Molecular Imager ChemiDoc XRS system (Bio-Rad, Hercules, Calif.).
(Immunoblotting shows a protein as a band on a membrane.)

The subject of a further data set is healthy mouse. Put plainly: cardiac contractility in the healthy mouse (echocardiography, isoproterenol challenge). The class given is in vivo. On the procedure: To test the effect of SP163M on heart contractility the following study was conducted. […] SP34 is a peptide with a scrambled sequence of SP16 and is used as a control peptide.
Ten-weeks-old ICR mice were treated with SP163M (100 μg/mouse i.p.), the control peptide SP34 (100 μg/mouse) or the vehicle solution. Echocardiography was used to assess left ventricular (LV) fractional shortening at baseline and after 180 minutes.
Cardiac contractility reserve was tested with isoproterenol challenge (10 ng/kg i.p.), measuring the increase in LV fractional shortening within 5′ of treatment. Each group included at least 6 mice.

Data set [3] has as its system NF-kB signaling in THP1-XBlue-MD2-CD14 cells. Put plainly: NF-kB inducible SEAP reporter assay in THP1-XBlue-MD2-CD14 cells. The class given is cell-based. On the procedure: THP1-XBlue™-MD2-CD14 cells (InvivoGen, San Diego, Calif.) were used in an in vitro assay to examine whether SP163M is an agonist of LRP. The THP1-XBlue™-MD2-CD14 cells were maintained in RPMI 1640 medium (Thermo Scientific) supplemented with 10% heat inactivated FBS, 1% Pen-Strep, 100 ug/ml Normocin™, 200 ug/ml Zeocin™, and 250 μg/ml of G418. The cell lines were maintained in 5% C02 at 37° C. and in accordance with the distributor's guidelines.
The THP1-XBlue™-MD2-CD14 cells were seeded at 1×10^5 cells/well in a 96-well cell culture plate. The cells were treated with peptide or a scrambled control peptide (100 μg/ml), for 30 minutes prior to the addition of LPS (5 ng/ml) or GP96 (100 μM). After an 18-24 hour incubation at 37° C., 20 μl of supernatant was transferred to 180 μl of QUANTI-Blue™ SEAP detection medium. NF-κB inducible SEAP levels were detected by measuring the absorbance. In experiments blocking LRP1, the anti-LRP1 antibody (125 μg/ml) (clone 5A6, Molecular Innovations, Novi, Mich.) or Receptor-Associated Protein (RAP) (1 μM) (Molecular Innovations) were used 30 minutes prior to the addition of the peptide.
A general note: In a reporter assay the amount or activity of a reporter protein is the signal.

For `CCCC[C@H](NC(=O)[C@H](CC(C)C)NC(=O)[C@H](Cc1ccccc1)NC(=O)[C@@H](NC(=O)[C@H](Cc1ccccc1)NC(=O)[C@@H]1CCCN1C(=O)[C@H](CCCCN)NC(=O)[C@H](CC(N)=O)NC(=O)[C@H](Cc1ccccc1)NC(=O)[C@H](CCCCN)NC(=O)[C@@H](NC(C)=O)C(C)C)C(C)C)C(=O)N[C@H](C(=O)N[C@@H](CCC(=O)O)C(=O)N[C@@H](CCC(N)=O)C(=O)N[C@@H](CC(N)=O)C(=O)N[C@H](C(=O)N[C@@H](CCCCN)C(N)=O)[C@@H](C)O)[C@@H](C)CC` [SP163M], the “protective effects (infarct size, LV systolic function) after LRP1 blocking antibody” value on LRP1 is listed as “eliminates the cardioprotective effects; also recorded: eliminated the protective effects”. Besides, the “expression of LRP1 (mean fluorescent intensity), dose-dependent” value in data set [1] was “increase expression of LRP1”. Besides, the “efficacy as measured by infarct size” value in data set [2] (10 μg dose (dose reduced by 90%), FIG. 6A) is listed as “effective”. Further, in data set [2] (10 μg dose (dose reduced by 90%), FIG. 6B), the “efficacy as measured by LV systolic function” value was “effective”. Further, in data set [2] (100 μg/mouse i.p. at reperfusion, 24 hours, FIG. 4B), the “plasma levels of cardiac specific troponin I” value is reported as “significantly reduced; also recorded: reducing plasma levels of cardiac specific troponin I”. In addition, the “myocardial infarct size (in words)” value in data set [2] (100 μg/mouse i.p. at reperfusion, FIG. 4A) is given as “reducing myocardial infarct size”. Moreover, the “left ventricular systolic function (LV fractional shortening, echocardiography)” value in data set [2] (100 μg/mouse i.p. at reperfusion, FIG. 4C) is given as “preserving the left ventricular systolic function”. Also, the infarct size entry in data set [2] (100 μg/mouse i.p. with 30′ of delay after reperfusion, FIG. 5A) is reported as “significantly reduced infarct size”. For the same compound, the LV fractional shortening entry in data set [2] (100 μg/mouse i.p. with 30′ of delay after reperfusion, FIG. 5B) is “preservation of LV fractional shortening”. Also, the “infarct size, in a dose-dependent fashion” value in data set [2] (10 or 100 μg with 30′ of delay, FIG. 6A) is given as “reduces infarct size”. Further, the “LV fractional shortening, in a dose-dependent fashion” value in data set [2] (10 or 100 μg with 30′ of delay, FIG. 6B) is “preserves LV fractional shortening”. Besides, in data set [2] (mouse AMI model, dose not given at the place), the “infarct size in the AMI model (general statement)” value is “reduces the size of the infarct”. For the same compound, the “anti-inflammatory activity compared with AAT” value in data set [2] (preclinical models of AMI) is recorded as “equal or better anti-inflammatory activity”. Also, at recombinant LRP1 protein, the “binding to LRP1 (statement without method)” value is reported as “bind LRP1”. Also, the “binding to LRP1” value at recombinant LRP1 protein (biotin-peptide 1-5 μg/ml, LRP1 1 μg/ml, FIG. 12B) is on record as “binds to LRP1”. In addition, in the data set on healthy mouse (100 μg/mouse i.p., baseline and after 180 minutes, FIG. 7 left panel), the “cardiac systolic function at rest (LV fractional shortening)” value is “does not alter cardiac systolic function”. Also, in the data set on healthy mouse (100 μg/mouse i.p., isoproterenol 10 ng/kg i.p., FIG. 7 right panel), the “cardiac systolic function after isoproterenol challenge (contractile reserve)” value is “does not alter cardiac systolic function”. The heart contractility result with healthy mouse (FIG. 7) is “not effect heart contractility; also recorded: does not affect heart contractility”. Besides, the LRP1 agonism entry in data set [3] was “agonist”.
